## Reported properties for industrial, environmental and drug-like chemicals

Data: OPERA 2.9 data sets, kmansouri/OPERA on GitHub.

Melting points are in °C.
Boiling points are in °C, nominally at 760 mmHg.
The octanol-water partition coefficient is given as log10; larger values mean a more lipophilic compound.
Water solubility is log10 of mol/L, nominally at 25 °C; higher is more soluble.
Vapor pressure is log10 of mmHg; the set covers 15 to 30 °C, mostly 20 to 25 °C.
The unbound fraction in human plasma runs from 0 (all bound) to 1 (all free).
Intrinsic clearance (human, µL/min per 10^6 hepatocytes): higher is faster turnover, and 0 stands for none detected.
Cells with "–" have no entry in this list.

structure (SMILES)	name	melting point (°C)	BP (°C)	logP	water solubility (log10 mol/L)	vapor pressure (log10 mmHg)	fraction unbound	intrinsic clearance (µL/min/10^6 cells)
CCCCN1CCCC1=O	2-Pyrrolidinone, 1-butyl-	–	–	1.265	–	-1.011	–	–
COc1cc(NS(=O)(=O)c2ccccc2)c2c(c1N)C(=O)c1ccccc1C2=O	–	236.2	–	–	–	-12.56	–	–
CC(=O)N1CC(=O)N2CCc3ccccc3C2C1 (stereo unspecified)	–	142	–	0.7	–	-8.078	–	–
CC(C)(C)CC(C)(C)Nc1nc(Cl)nc(Cl)n1	–	78	–	–	-6.048	–	–	–
CCC(C)(C)c1cc(O)c(C(C)(C)CC)cc1O	2,5-Bis(2-methylbutan-2-yl)benzene-1,4-diol	–	–	3.3	–	-6.247	–	–
CC(=O)C(C)=CC1C(C)=CCCC1(C)C (stereo unspecified)	alpha-Isomethylionone	–	–	4.625	-4.093	-1.831	0.006334	–
CCCCCCCCCC	Decane	–	–	–	–	–	0.06697	0.1533
CN1C(C(=O)Nc2ccccn2)=C(O)c2sccc2S1(=O)=O	Tenoxicam	–	–	–	-3.876	–	–	1.869
CC(CC(=O)O)CC(C)(C)C (stereo unspecified)	3,5,5-Trimethylhexanoic acid	–	–	3.2	-2.354	-2.412	–	–
Cc1ncc(C[n+]2csc(CCO)c2C)c(N)n1.[Cl-]	Thiamine	–	–	-3.93	0.221	–	0.08	–
CCC(C)CCCC(C)CCCC(C)C (stereo unspecified)	2,6,10-Trimethyldodecane	–	–	–	-8.929	-0.174	–	–
O=[N+]([O-])c1ccccc1NCCO	Ethanol, 2-[(2-nitrophenyl)amino]-	–	–	1.5	-1.993	-6.08	–	–
COC(=O)C1CCC(C(=O)OC)CC1 (stereo unspecified)	Dimethyl cyclohexane-1,4-dicarboxylate	–	–	2.29	–	-1.767	–	–
Cc1cc(C)c(N)c(S(=O)(=O)O)c1	Benzenesulfonic acid, 2-amino-3,5-dimethyl-	317.6	–	0.814	-1.82	–	–	–
Cc1nn(C)c(F)c1C(=O)F	5-Fluoro-1,3-dimethyl-1H-pyrazole-4-carbonyl fluoride	42.5	210	–	–	–	–	–
C/C=C/C(=O)[C@@H]1[C@@H](C)C=CCC1(C)C	–	10.78	–	–	-3.396	–	–	–
CN(C)C(=O)Nc1ccccc1	Fenuron	–	–	–	–	–	0.564	2.89
CC1=NN(c2ccccc2)C(=O)C1	1-Phenyl-3-methyl-5-pyrazolone	–	–	1.23	–	-2	–	–
O=C(O)C(CCBr)(c1ccccc1)c1ccccc1	4-Bromo-2,2-diphenylbutyric acid	–	–	2.75	-4.069	-6.002	–	–
O=c1oc(=O)c2cc3c(=O)oc(=O)c3cc12	1H,3H-Benzo(1,2-c:4,5-c')difuran-1,3,5,7-tetrone	–	–	-2.03	–	-8.002	–	–

3 of these entries, quoted again:

| structure (SMILES) | name | melting point (°C) | BP (°C) | logP | water solubility (log10 mol/L) | vapor pressure (log10 mmHg) | fraction unbound | intrinsic clearance (µL/min/10^6 cells) |
|---|---|---|---|---|---|---|---|---|
| CCCCN1CCCC1=O | 2-Pyrrolidinone, 1-butyl- | – | – | 1.265 | – | -1.011 | – | – |
| COC(=O)C1CCC(C(=O)OC)CC1 (stereo unspecified) | Dimethyl cyclohexane-1,4-dicarboxylate | – | – | 2.29 | – | -1.767 | – | – |
| O=[N+]([O-])c1ccccc1NCCO | Ethanol, 2-[(2-nitrophenyl)amino]- | – | – | 1.5 | -1.993 | -6.08 | – | – |

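The numbers are reported measurements, compiled and curated for the OPERA QSAR suite. A listed value is a point estimate from one report or more. How each value was measured is not recorded, so precision varies. The measured form (salt, isomer or mixture) is not always the one drawn. Some upstream entries may be estimates or bounds without being marked so.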